# Experimental data taken from ChEMBL document CHEMBL1641602, “Quinolones as HCV NS5B polymerase inhibitors” (Bioorg Med Chem Lett, 2011).
# Assay: Inhibition of Hepatitis C virus 1b BK NS5B Cdelta21 polymerase by scintillation proximity assay
# Set-up: species or system Hepatitis C virus (isolate BK)
# Outline: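 Started with [3H]UTP, 1 µM UTP, 250 nM 5'-biotin-oligo(rU12), 0.8 µg/ml poly(rA). Stopped at 120 min with streptavidin SPA beads, tRNA and EDTA, then CsCl added before counting.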
compound,measurement,value
CN1CCN(c2cc3c(cc2F)c(=O)c(C(=O)OCc2ccc(Cl)cc2)cn3Cc2ccc(S(C)(=O)=O)cc2)CC1,IC50,16 nM
